This passage reports Kd and half-life results from patent US10716827B2 (priority 2015, dated 2020).

Protein sequences, listed by entry. Tags and fused reporters are not part of them. Residues count along the entry.
UniProt P27352, 19-417: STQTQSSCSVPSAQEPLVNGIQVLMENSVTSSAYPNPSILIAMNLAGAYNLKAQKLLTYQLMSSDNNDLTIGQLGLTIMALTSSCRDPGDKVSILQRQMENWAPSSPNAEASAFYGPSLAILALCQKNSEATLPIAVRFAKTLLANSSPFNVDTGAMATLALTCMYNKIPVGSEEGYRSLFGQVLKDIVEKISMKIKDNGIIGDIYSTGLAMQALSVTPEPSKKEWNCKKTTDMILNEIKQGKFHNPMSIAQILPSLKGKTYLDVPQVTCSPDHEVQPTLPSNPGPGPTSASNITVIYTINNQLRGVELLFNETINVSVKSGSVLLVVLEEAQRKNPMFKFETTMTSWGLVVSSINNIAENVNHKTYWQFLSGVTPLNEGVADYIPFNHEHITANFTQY

Data set [1] addresses T1, Intrinsic Factor (IF) (Homo sapiens, UniProt P27352). To be noted: read-out: IF binding; radiometric chase assay, 57Co-labelled B12; IF produced in Arabidopsis, apo-form.
For data set [2], the target named is T1, Intrinsic Factor (IF). To be noted: read-out: Kd, IF binds B12; background statement; cited from earlier work.
The conditions of data set [3]: background statement; cited from earlier work.

Like-named read-outs stand apart in the source and are kept apart here. Some results are limits rather than exact numbers.

As for cyanocobalamin [B12], the Kd on Intrinsic Factor (IF) [1] is 0.12 nM; at Intrinsic Factor (IF) [2] it was approximately 0.001 nM.

Turning to GLP-1, the half-life in data set [3] is reported as less than 2 min.
